This is an account of results in patent publication US20150065440A1 (Progen Pharmaceuticals Limited, priority 2007, published 2015).

Sequences of proteins named here, by UniProt entry; tags and fusion partners are left off.
UniProt P05230, whole entry, species assumed: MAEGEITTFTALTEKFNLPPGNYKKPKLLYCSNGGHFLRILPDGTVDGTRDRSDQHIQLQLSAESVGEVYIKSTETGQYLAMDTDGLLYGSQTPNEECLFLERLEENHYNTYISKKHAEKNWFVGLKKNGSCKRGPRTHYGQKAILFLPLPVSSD

The experiment concerns the target FGF-1 (Homo sapiens, UniProt P05230). Nature of the experiment: Growth factor binding assay (SPR solution affinity), FGF-1. To be noted: HBS-EP buffer, 25° C. As to the method:
Binding affinities of compounds for the growth factors FGF-1, FGF-2 and VEGF were measured using a surface plasmon resonance (SPR) based solution affinity assay.^9 Heparin-coated sensorchips used for this assay were prepared via immobilisation of biotinylated BSA-heparin on a streptavidin-coated sensorchip, or via aldehyde coupling using either adipic acid dihydrazide or 1,4-diaminobutane.^9 For each Kd measurement, solutions were prepared containing a fixed concentration of protein and varying concentrations of the ligand in buffer. Ligands binding to FGF-1 and VEGF were measured in HBS-EP buffer (10 mM HEPES, pH 7.4, 150 mM NaCl, 3.0 mM EDTA and 0.005% (v/v) polysorbate 20), while binding to FGF-2 was measured in HBS-EP buffer containing 0.3 M NaCl. Prior to injection, samples were maintained at 4° C. to maximise protein stability. For each assay mixture, 50-200 μL of solution was injected at 5-40 μL/min and the relative binding response measured. All surface binding experiments were performed at 25° C. The surface was regenerated by injection of 40 μL of 4M NaCl at 40 μL/min, followed by injection of 40 μL of buffer at 40 μL/min.
Sensorgram data were analysed using the BIAevaluation software (BIAcore) and Kd values determined as previously described.^9 Where Kd values were measured in duplicate, the values represent the average of the duplicate measurements.

`CC(C)CCCC(C)C1CCC2C3CCC4CC(OC5OC(COS(=O)(=O)O)C(OC6OC(COS(=O)(=O)O)C(OC7OC(COS(=O)(=O)O)C(OC8OC(COS(=O)(=O)O)C(OS(=O)(=O)O)C(OS(=O)(=O)O)C8OS(=O)(=O)O)C(OS(=O)(=O)O)C7OS(=O)(=O)O)C(OS(=O)(=O)O)C6OS(=O)(=O)O)C(OS(=O)(=O)O)C5OS(=O)(=O)O)CCC4(C)C3CCC12C` [Compound 65, 3β-Cholestanyl 2,3,4,6-tetra-O-sodium sulfonato-α-D-glucopyranosyl-(1→4)-2,3,6-tri-O-sodium sulfonato-α-D-glucopyranosyl-(1→4)-2,3,6-tri-O-sodium sulfonato-α-D-glucopyranosyl-(1→4)-2,3,6-tri-O-sodium sulfonato-β-D-glucopyranoside]: the Kd – broadly, the equilibrium constant for the complex coming apart – turned out to be 8 ± 4 nM.
